Test results taken from article PMC2651628.

Biological target: YFP-hMena (human Mena fused to monomeric Venus) (human) (UniProt Q8N8S7)
Assay: FRET or BRET; u-adFRET (acceptor-depletion FRET with linear spectral unmixing) in U251MG cells co-transfected with YFP (Venus) acceptor and CFP donor fusions, fixed in 4% paraformaldehyde; FRET efficiency by region of the cell (cytosol, peripheral, focal adhesion)

CFP-wtRac1 (wild type Rac1) (from UniProt P63000 1-192) (natural protein)
FRET efficiency (cytosol): 16
FRET efficiency (peripheral): 21
